The numbers were not newly measured in paper PMC8608346, which cites them from elsewhere.

This data set concerns the target GPR1 (Homo sapiens) (UniProt P46091).

For orientation: Kd means a measure of binding affinity in units of concentration. For FAM19A1 (from UniProt Q7Z5A9), the Kd was 0.014 nM.
